Data set [1] can be described thus: in vitro. To be noted: bovine, PAMPA, pH 7.4. For orientation: In PAMPA a lipid-coated filter parts donor from acceptor wells.
The nature of data set [2]: in vitro. Conditions: bovine, PAMPA, pH 7.4. This is another data set of the same source.
Data set [3] is described as follows: in vitro. Conditions: bovine, PAMPA, pH 7.4. The source holds these as a separate data set.
Data set [4] is described as follows: PAMPA permeability, heart total lipid extract (HTLE) membrane. To be noted: n=3, * = not detected at acceptor side, value calculated from limit of detection.
Data set [5] in a line: PAMPA permeability, liver polar lipid extract (LPLE) membrane. To be noted: n=3, * = not detected at acceptor side, value calculated from limit of detection.

SMILES strings stand for the structures. Bounds are passed on as bounds.

These results are taken from paper PMC10053807, “Natural Lipid Extracts as an Artificial Membrane for Drug Permeability Assay: In Vitro and In Silico Characterization” (Pharmaceutics, 2023).

The Papp is the rate of passage across a membrane or cell layer, normalised by area and donor concentration. A low value points to poor permeation. Consider `CC1=C(CC(=O)O)c2cc(F)ccc2/C1=C\c1ccc([S+](C)[O-])cc1` (centres unmarked) [sulindac], for which the figures for the Papp at 4 h, 100 μM in the data set “in vitro [1]”, in “in vitro [2]” and in the data set “in vitro [3]” were below 0.525 ×10⁻⁶ cm/s, below 0.513 ×10⁻⁶ cm/s and below 0.437 ×10⁻⁶ cm/s, respectively. Further, the “Mean Pe” value in data set [4] and in data set [5] was < 0,52* 10-6 cm/s each time.
